scFv variants of Ab-14 (heavy chain) against a SARS-CoV-2 spike peptide

Data: MIT Lincoln Laboratory AlphaSeq set, Li et al. 2023, doi:10.1038/s41467-023-39022-2, as distributed in FLAb.

All variants were tested on one target, the spike HR2 peptide PDVDLGDISGINAS (SARS-CoV-2).

Parent scFv Ab-14: VH joined to VL by a 15-residue (Gly4Ser)3 linker. Changes lie in the heavy chain CDRs alone.
VH: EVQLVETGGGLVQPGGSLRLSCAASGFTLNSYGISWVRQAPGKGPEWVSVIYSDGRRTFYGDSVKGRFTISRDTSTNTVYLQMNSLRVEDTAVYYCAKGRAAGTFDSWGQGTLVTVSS
VL: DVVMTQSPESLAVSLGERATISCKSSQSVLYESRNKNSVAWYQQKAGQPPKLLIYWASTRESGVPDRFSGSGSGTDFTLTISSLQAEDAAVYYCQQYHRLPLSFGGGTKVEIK

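The parent was found by panning a naive human phage display library on the peptide. Designed CDR sequences, proposed from the first random library and measured here. Several design methods are mixed in this list. Affinity was read by AlphaSeq, a pooled yeast mating assay with surface-displayed partners. Mating (16 h, 30 °C) was followed by selection of diploids and sequencing of their barcodes. A regression on co-assayed BCL2-family reference pairs converts the normalised counts of each replicate to an apparent Kd. The assay was run in six technical replicates.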

Variants are written as CDR1, CDR2 and CDR3 of the heavy chain (limits as in the source). Parent: GFTLNSYGIS, VIYSDGRRTFYGDSVK, GRAAGTFDS.
Numbers give log10(Kd / nM), so 0 is 1 nM and 3 is 1 µM. Smaller is tighter.
A mean of the replicates is given; it leaves out those without a signal.
A pair that was not seen in any replicate is written "not detected"; this usually means weak binding, but a binder can also be missed.

CDR-H1	CDR-H2	CDR-H3	log10 Kd (nM), mean	detected
GFDLNEQGIS	VIYADGVRTEYQNRVK	GEIDGLFTF	not detected	0 of 6
GFTLNSYGIS	VIYSDGRRTFYADSVK	GEAAGTFDT	1.12	3 of 6
GFDLNEYGIS	VIYADGRRTAYADSVK	GQLAGTFSV	-0.33	6 of 6
GFDLNSYGIS	VIYSDGRRTFYGDQVK	GRTAGTFDS	0.63	6 of 6
GFTLNEYGIS	VIYSDGRRTFYGDSVK	GRHAGTFDD	1.54	6 of 6
GFEIQEYGIS	VIYADGRRTAYAESVK	GTLGGTLST	0.99	4 of 6
GFELNSYGIS	VIYSDGRRTFYSDSVK	GQVAGTFDT	0.46	6 of 6
GFTLNSEGIS	VIYSDGRRTFYDDSVK	GQLAGTFDS	1.55	6 of 6
GFTLNSYGIS	VIYSDGRRTFYGDKVK	GRAAGTFCS	not detected	0 of 6
GFKINEYGIS	VIYADGMRRSYADSVK	GAESGYMVV	not detected	0 of 6
GFDLNSYGIS	VIYSDGRRTFYVDAVK	GRQAGTFDS	1.97	6 of 6
GFDLDEYGIS	VIYADGMRTAYADSVK	GEVAGTFDI	0.69	6 of 6
GFDLDEYGIS	VIYADGKRTAYANSVK	GNVAGTFDL	-0.23	6 of 6
GFSLNSYGIS	VIYSDGRRTFYGDSVK	GSAAGTFDS	0.49	6 of 6
GFGLLEYGIS	VIYADGMRLSYAENVK	GQEGQLFDL	not detected	0 of 6
GFTLNSYGIS	VIYSDGRRTFYGSSVK	GRAAGQFDS	not detected	0 of 6
GFGLNEYGIS	VIYSDGRRTFYGDSVK	GRIAGTFDS	0.41	6 of 6
GFTLNDYMIS	VIYSDGRRTFYGDSAK	GRAALTFIS	not detected	0 of 6
GFTLESYGIS	VIYSDGVRTFYGDSVK	GRAAHTFDS	not detected	0 of 6
GFNLEEYGIS	VIYADGKRTFYIDGVK	GTWYVFGLG	not detected	0 of 6
GFSLDEYGIS	VIYADGRRTMYCDNFK	GEHGCTFKM	1.04	6 of 6
GFSLNDYGIS	VIYSDGRRTFYADSVK	GRAAGTFDE	0.21	6 of 6
RNTLNSYGIS	VIYADGLRTAYGDSVK	GRAAGTFDS	0.11	6 of 6
GFTLDEYGIS	VIYADGRRTFYADSVK	GEVAGTFDI	-0.34	6 of 6
GFHVQMYGIS	VIYSDGRRTFYVDSVK	GRAVGTFDS	not detected	0 of 6
GFDLNSYGIS	VIYADGRRTFYGDSVK	GRLAGVFDS	0.55	6 of 6
GFQLNDYGIS	VIYSDGRRTFYADSVK	GNAAGTFDS	1.61	3 of 6
GFDLNEYGIS	VIYADGRRTFYADSVK	GGNAGTFDS	-0.28	6 of 6
GFSLNWYGIS	VIYSDGRRTFYADSVK	GREAGTFDS	0.84	6 of 6
GFHLNSYGIS	VIYSDGRRTFYSDSVK	GQEAGTFDS	0.15	6 of 6
GFTLNSYGIS	VIYSDGRRTFYIDSVK	GRASGTFDS	not detected	0 of 6
HFGLNEYGIS	VIYSDGRRTFYHDSVK	GRTAGTFDS	0.28	6 of 6
GFDLNEYGIS	VIYADGRRTFYSDSVK	GTNGGTFDV	-0.12	6 of 6
GFTLNEYGIS	VIYSDGRRTFYGQSVK	GRTAGTFDS	0.66	4 of 6
GFDLDEMGIS	VIYADGRRTAYSNAFK	GNNQYGLMV	not detected	0 of 6
GFDLNSYGIS	VIYSDGRRTFYGDNVK	GRTAGTFDS	0.42	6 of 6
GFDLNAYGIS	VIYSDGRRTFYGDSVK	GEAAGTFDS	-0.20	6 of 6
GFSLNEYGIS	VIYSDGRRTFYGDSVK	GRTAGTFFS	2.23	2 of 6
GFDLNEYGIS	VIYADGMRTFYADDVK	GENAGTFDM	-0.46	6 of 6
GFTLNQYGIS	VIYADGRRTFYFDSVK	GRAAGFFDS	3.43	1 of 6
GFDLNSYGIS	VIYSDGRRTFYGDSVK	GRAAGCFWS	not detected	0 of 6
GFDLNEYGIS	VIYADGRRTFYSDSVK	GTNAGTFDI	-0.26	6 of 6
GFDLDEYGIS	VIYADGRRTFYADSVK	GENAGTFDA	-0.37	6 of 6
GFRLNSYGIS	VIYSDGRRTFYGDSVK	GQLAGTFDS	not detected	0 of 6
GFQLNSYGIS	VIYSDGRRTAYQDSVK	GRAAGTFDS	1.70	1 of 6
GFTLNDYGIS	VIYSDGRRTFYGDSVK	GRAALSFIS	not detected	0 of 6
GFQLNDYGIS	VIYSDGRRTFYGDSVK	GRQAGTFDS	0.80	6 of 6
GFNLNEYGIS	VIYADGRRTFYADSVK	GQNAGTFDM	-0.49	6 of 6
GFTLNEYGIS	VIYSDGRRTFYGDSVK	GRAAVTFDS	2.59	1 of 12
GFDLNEYGVS	VIYADGQRTQYSDKVK	GSESASITN	not detected	0 of 6
GFDLNEYGVS	VIYADGFRTSYTDSVK	GFVVDLSMA	not detected	0 of 6
GFTMNDYGIS	VIYSDGRRTFYGDSVK	GRAALTFIS	not detected	0 of 6
GFELNSYGIS	VIYSDGRRTFYGDSVK	GQIAGTFDS	not detected	0 of 6
GFTLNEYGIS	VIYSDGRRTFYGDSVK	GRAAVTFGL	not detected	0 of 6
GFDIEEYGIS	VIYADGRRVSYSNKVK	GQNGMIGNY	not detected	0 of 6
GFDLNSYGIS	VIYSDGQRTFYGDAVK	GRTAGTFDS	0.60	4 of 6
GFSLNNYGIS	VIYSDGRRTFYIDSVK	GNAAGTFDS	0.28	6 of 6

Top 7 of the variants detected in all replicates, tightest first:

CDR-H1	CDR-H2	CDR-H3	log10 Kd (nM), mean	detected
GFNLNEYGIS	VIYADGRRTFYADSVK	GQNAGTFDM	-0.49	6 of 6
GFDLNEYGIS	VIYADGMRTFYADDVK	GENAGTFDM	-0.46	6 of 6
GFDLDEYGIS	VIYADGRRTFYADSVK	GENAGTFDA	-0.37	6 of 6
GFTLDEYGIS	VIYADGRRTFYADSVK	GEVAGTFDI	-0.34	6 of 6
GFDLNEYGIS	VIYADGRRTAYADSVK	GQLAGTFSV	-0.33	6 of 6
GFDLNEYGIS	VIYADGRRTFYADSVK	GGNAGTFDS	-0.28	6 of 6
GFDLNEYGIS	VIYADGRRTFYSDSVK	GTNAGTFDI	-0.26	6 of 6

Nonspecific signal, from three strains lacking the peptide, appeared in 1% of pairings of all heavy chain designs, centred on 2.08 (5% of these signals below 0.84); values are not corrected for it.
Where one sequence has several entries in the source, the replicates are pooled.
The authors' rule: three or more of the six replicates give a measured affinity, fewer mean a poor binder.
Of ten entries with the parent sequence, four were seen in most replicates (averages 0.34 to 2.37), three in one and three in none, so single entries are noisy.
Values of this round are not directly comparable with the first-round values of the same sequences.